Results reported in BindingDB's records for doi:10.1016/s1388-1981(99)00164-x (Merck Frosst Centre For Therapeutic Research, 2000).

By UniProt entry, the sequences of proteins in these tests, tags left out. Where a name states a change or a piece, a line headed by the entry shows the natural chain unless it says otherwise.
UniProt P43116: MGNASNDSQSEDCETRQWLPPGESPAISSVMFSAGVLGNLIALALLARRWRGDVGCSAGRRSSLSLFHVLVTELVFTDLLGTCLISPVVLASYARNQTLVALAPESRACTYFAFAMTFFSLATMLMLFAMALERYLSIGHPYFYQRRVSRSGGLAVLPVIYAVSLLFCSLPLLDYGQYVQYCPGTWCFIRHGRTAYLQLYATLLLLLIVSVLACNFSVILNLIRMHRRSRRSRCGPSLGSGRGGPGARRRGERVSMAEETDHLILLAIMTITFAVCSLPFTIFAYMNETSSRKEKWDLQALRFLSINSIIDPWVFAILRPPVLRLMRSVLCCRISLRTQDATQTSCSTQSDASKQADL

Target: Prostaglandin E2 receptor EP2 subtype (Homo sapiens, UniProt P43116)

Ki: 4.9 nM
SMILES: CCCCC[C@H](O)/C=C/[C@H]1[C@H](O)CC(=O)[C@@H]1C/C=C\CCCC(=O)O [DINOPROSTONE]
